Results: paper PMC5618341, “Controlled inhibition of methyltransferases using photoswitchable peptidomimetics: towards an epigenetic regulation of leukemia” (Chemical Science, 2017)
Read-outs that look alike come from different tables or passages of the source.

Biological target: T1, WDR5Δ23 (Homo sapiens, UniProt P61964)
T1 construct: His6-SUMO (N, cleaved yes); made in house; host or cells: E. coli DH5α (so in the source)
Experiment: Fluorescence polarization (FP)-based competitive binding assay

## CC(C)C[C@H](NC(=O)[C@H](Cc1cnc[nH]1)NC(=O)[C@@H](NC(=O)[C@H](CCC(=O)O)NC(=O)[C@H](C)NC(=O)[C@H](CCCN=C(N)N)NC(=O)[C@H](C)NC(=O)[C@@H](N)CO)C(C)C)C(=O)N[C@@H](CCCN=C(N)N)C(=O)N[C@@H](CCCCN)C(=O)N[C@@H](CO)C(N)=O [peptide 3, reference compound]
non-irradiated peptide (trans isomer), 72 nM WDR5Δ23, 20 nM tracer 22, read-out: IC50, non-irradiated (trans)
  IC50: 1.34 ± 0.062 µM
Peptide irradiated at 430 nm, 20 nM tracer, read-out: IC50 (irr. at 430 nm)
  IC50: 1.43 ± 0.43 µM
Peptide irradiated at 430 nm, 20 nM tracer, read-out: Ki (irr. at 430 nm)
  Ki: 0.0238 ± 0.00616 µM
